Test results as given in patent US9365853B2, “Matriptase inhibitors and uses thereof against orthomyxoviridae infections” (priority 2011, dated 2016).

Chains of the proteins cited; added tags and fusions are not shown. Residues count along the entry.
UniProt Q9Y5Y6, 596-855 limits assumed: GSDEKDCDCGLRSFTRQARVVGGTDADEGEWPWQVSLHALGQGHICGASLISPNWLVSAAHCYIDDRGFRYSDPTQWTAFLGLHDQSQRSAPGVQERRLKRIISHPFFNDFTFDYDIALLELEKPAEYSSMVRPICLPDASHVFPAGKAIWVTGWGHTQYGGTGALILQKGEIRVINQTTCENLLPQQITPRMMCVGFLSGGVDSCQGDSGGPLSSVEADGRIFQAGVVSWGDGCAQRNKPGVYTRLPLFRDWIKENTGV

Target: Recombinant purified human matriptase (amino acids 596-855) (Homo sapiens (Human), UniProt Q9Y5Y6)
Assay: biochemical

## C[C@H](NC(=O)[C@H](CCC(N)=O)NC(=O)[C@@H](N)CCCNC(=N)N)C(=O)N[C@@H](CCCNC(=N)N)C(=O)c1nc2ccccc2s1 [Compound 1, RQAR-ketobenzothiazole]
  IC50: ~29 nM
